# Measured values reported in patent US7560106B2, “Rationally designed heparinases derived from heparinase I and II and methods of sequencing therewith” (Massachusetts Institute of Technology, priority 1998, dated 2009).
# Sequences of proteins named here, by UniProt entry; tags and fusion partners are left off. A change or cut given only in a name is not applied to a line headed by its entry.
# UniProt Q05819: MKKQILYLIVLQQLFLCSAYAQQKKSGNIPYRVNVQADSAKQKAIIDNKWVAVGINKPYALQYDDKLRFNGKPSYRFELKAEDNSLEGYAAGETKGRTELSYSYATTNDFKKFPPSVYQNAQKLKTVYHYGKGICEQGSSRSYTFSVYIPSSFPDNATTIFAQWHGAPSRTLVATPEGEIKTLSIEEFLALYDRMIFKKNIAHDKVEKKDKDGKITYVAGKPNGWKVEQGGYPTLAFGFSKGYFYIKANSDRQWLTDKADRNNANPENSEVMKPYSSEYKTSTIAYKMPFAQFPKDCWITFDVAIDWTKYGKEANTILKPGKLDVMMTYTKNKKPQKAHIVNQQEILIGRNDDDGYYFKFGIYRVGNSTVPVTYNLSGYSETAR
# Molecular target: heparinase I (Pedobacter heparinus, UniProt Q05819)
# Experiment: WRK and EDC inactivation of heparinase I, protection by calcium and heparin
# Assay type: biochemical, Flavobacterium heparinum
substance,measurement,setting,value
Woodward's Reagent K,second order rate constant of inactivation,0-400 μM WRK,132 M⁻¹ s⁻¹
same,κinact,"preincubation with calcium alone, large calcium concentrations",2.1 min⁻¹
same,κinact,preincubation with heparin plus calcium,1.2 min⁻¹
